Patent publication US8404742B2, “Diosmetin compounds, a process for their preparation and pharmaceutical compositions containing them” (Les Laboratories Server, priority 2008, dated 2013)

Test system: Vascular Cell Adhesion Molecule 1 (VCAM-1)
Assay: In vivo inhibition of the expression of VCAM-1 in aorta of diabetic ApoE-/- mice (real-time PCR)
Details: 130 mg/kg/day in the food for 6 weeks, untreated = 100%, n=8

`C=C(C)Cc1c(-c2cc(=O)c3c(O)c(CC(=C)C)c(O)c(CC(=C)C)c3o2)ccc(OC)c1O` [Example 1, 6,8,2′-Tris(isobut-2-en-1-yl)diosmetin] was tested, and the “level of VCAM-1 expression relative to the untreated mice” value was 65.9±10.1%.
